# Ab-14 light chain CDR variants: yeast mating affinities

The target is the same throughout: PDVDLGDISGINAS, from the HR2 region of SARS-CoV-2 spike.

Parent scFv Ab-14: VH joined to VL by the linker GGGGSGGGGSGGGGS. Changes lie in the light chain CDRs alone.
VH: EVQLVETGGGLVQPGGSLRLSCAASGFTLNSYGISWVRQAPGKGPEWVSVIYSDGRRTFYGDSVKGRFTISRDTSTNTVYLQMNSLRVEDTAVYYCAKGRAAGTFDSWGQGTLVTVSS
VL: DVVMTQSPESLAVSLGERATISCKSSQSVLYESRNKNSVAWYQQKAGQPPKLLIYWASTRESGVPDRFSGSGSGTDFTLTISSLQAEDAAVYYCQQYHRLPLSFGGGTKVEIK

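The variants were designed computationally from a first round of random CDR variants and then made and measured. Several design methods are mixed in this list. The assay is AlphaSeq: two haploid yeast populations carry antibody and antigen on their surface. Mating (16 h, 30 °C) was followed by selection of diploids and sequencing of their barcodes. Each replicate has its own calibration line, from reference interactions of the BCL2 family. Each pool was mated in six replicate cultures.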

The whole VL of each variant is written out.
The Kd shown is the geometric mean over detected replicates; a lower Kd is a better binder.
"no signal" means that the variant was in the library but no mating with the target was seen in any replicate; the authors take this as a sign of poor binding, and no number exists.
The authors averaged sequences with at least three values out of six and counted those with two or fewer as poor binders.

| VL | apparent Kd | detected | control signals |
|---|---|---|---|
| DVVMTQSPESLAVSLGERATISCKIGHGLTTESRNRNSVAWYQQKAGQPPKLLIYQTETRVDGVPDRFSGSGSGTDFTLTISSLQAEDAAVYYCQHYHRLPLSFGGGTKVEIK | 97 nM | 6/6 | 3/18 |
| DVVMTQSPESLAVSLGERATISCKDQQFYEGESRNKNSVAWYQQKAGQPPKLLIYSASTRESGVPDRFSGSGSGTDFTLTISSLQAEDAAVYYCQQYHRLPLSFGGGTKVEIK | 6.7 nM | 6/6 | 1/18 |
| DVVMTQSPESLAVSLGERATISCSLSQSVLYESRNKNSVAWYQQKAGQPPKLLIYNASTRESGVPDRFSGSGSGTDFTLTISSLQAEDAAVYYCQQYHRLPLSFGGGTKVEIK | 470 pM | 6/6 | 3/18 |
| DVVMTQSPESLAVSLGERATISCTIGAATLEESRNKNSVAWYQQKAGQPPKLLIYEMSLRENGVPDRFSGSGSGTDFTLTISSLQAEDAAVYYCQSYDRLPLSFGGGTKVEIK | 130 nM | 6/6 | 0/18 |
| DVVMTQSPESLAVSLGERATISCIISQVDAYESRNKNSIAWYQQKAGQPPKLLIYDQSSRGSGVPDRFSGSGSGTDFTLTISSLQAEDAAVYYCQQYDRLPLSFGGGTKVEIK | 13 nM | 6/6 | 0/18 |
| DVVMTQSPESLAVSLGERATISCKFEQSWLYESRNVNSVAWYQQKAGQPPKLLIYQASQRSDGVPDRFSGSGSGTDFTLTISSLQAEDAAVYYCQQYHRLPLSFGGGTKVEIK | 4.0 nM | 6/6 | 1/18 |
| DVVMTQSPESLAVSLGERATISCKISQMARVGSTHSNSIAWYQQKAGQPPKLLIYEEATRSKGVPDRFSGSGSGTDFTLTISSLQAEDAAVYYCQQYHRLPLAFGGGTKVEIK | no signal | 0/6 | 0/18 |
| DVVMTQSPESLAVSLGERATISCNMHNMCYQYENYGNSIAWYQQKAGQPPKLLIYQAQLRENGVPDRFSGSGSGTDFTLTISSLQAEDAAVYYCQQYSRLPFTFGGGTKVEIK | 1.9 nM | 6/6 | 2/18 |
| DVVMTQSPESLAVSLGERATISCKYSQSVLEESRNKNSVAWYQQKAGQPPKLLIYDASTRESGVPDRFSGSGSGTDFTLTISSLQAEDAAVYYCQQYHRLPLSFGGGTKVEIK | 1.2 nM | 6/6 | 1/18 |
| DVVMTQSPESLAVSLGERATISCKLSQSYLYESRNKNSVAWYQQKAGQPPKLLIYNASTRESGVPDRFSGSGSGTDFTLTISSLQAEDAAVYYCQQYHRLPLSFGGGTKVEIK | 3.8 nM | 6/6 | 0/18 |
| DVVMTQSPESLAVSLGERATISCKSSQSVLYEQRNVNSVAWYQQKAGQPPKLLIYWASNRESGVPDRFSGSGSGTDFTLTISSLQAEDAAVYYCQQYHRLPLSFGGGTKVEIK | no signal | 0/6 | 0/18 |
| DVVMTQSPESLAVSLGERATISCKCSWSVLFESRNKNSVAWYQQKAGQPPKLLIYDASTRESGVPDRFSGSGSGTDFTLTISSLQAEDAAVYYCQQYHRLPLSFGGGTKVEIK | 550 pM | 6/6 | 0/18 |
| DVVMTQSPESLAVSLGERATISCKVSQSMLGEERNKNSVAWYQQKAGQPPKLLIYSASTRENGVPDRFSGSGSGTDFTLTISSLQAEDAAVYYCQQYHRLPLSFGGGTKVEIK | 3.6 nM | 6/6 | 0/18 |
| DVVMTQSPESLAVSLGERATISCKVRQSQLYESRNKNSVAWYQQKAGQPPKLLIYWASTRESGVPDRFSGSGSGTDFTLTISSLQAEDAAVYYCQQYHRLPLSFGGGTKVEIK | 17 nM | 6/6 | 0/18 |
| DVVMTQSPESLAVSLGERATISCKLTNITGTEKVKGNNVAWYQQKAGQPPKLLIYEMETREKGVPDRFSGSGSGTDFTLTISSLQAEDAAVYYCQQYNRLPLSFGGGTKVEIK | 7.0 nM | 6/6 | 1/18 |
| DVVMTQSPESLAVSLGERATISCKISQMSTIESIMHNSVAWYQQKAGQPPKLLIYQTSTREKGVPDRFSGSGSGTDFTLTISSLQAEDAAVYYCQQYDRLPLSFGGGTKVEIK | 4.9 nM | 6/6 | 0/18 |
| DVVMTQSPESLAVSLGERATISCKLSQSVPYESRNKNSVAWYQQKAGQPPKLLIYQASTRESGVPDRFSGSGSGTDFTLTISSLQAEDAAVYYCQQYHRLPLSFGGGTKVEIK | 1.1 nM | 6/6 | 2/18 |
| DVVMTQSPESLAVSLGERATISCHQSPSVLYESRNKNSVAWYQQKAGQPPKLLIYNGSTREVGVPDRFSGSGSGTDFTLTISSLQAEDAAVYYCQQYHRLPLSFGGGTKVEIK | 620 pM | 6/6 | 2/18 |
| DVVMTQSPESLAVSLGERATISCKLQQADLYESRNANSVAWYQQKAGQPPKLLIYQASQRSSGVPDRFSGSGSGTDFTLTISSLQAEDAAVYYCQCYHRLPLSFGGGTKVEIK | 18 nM | 5/6 | 0/18 |
| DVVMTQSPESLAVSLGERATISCKLRQSTLIESFNKNNVAWYQQKAGQPPKLLIYEMSTRESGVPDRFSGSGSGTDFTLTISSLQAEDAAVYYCQSYDRLPLSFGGGTKVEIK | 9.9 nM | 6/6 | 0/18 |

Top 2 of the variants detected in all replicates, tightest first:

{"VL": "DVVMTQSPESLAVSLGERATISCSLSQSVLYESRNKNSVAWYQQKAGQPPKLLIYNASTRESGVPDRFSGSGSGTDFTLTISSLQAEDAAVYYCQQYHRLPLSFGGGTKVEIK", "apparent Kd": "470 pM", "detected": "6/6", "control signals": "3/18"}
{"VL": "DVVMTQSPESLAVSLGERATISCKCSWSVLFESRNKNSVAWYQQKAGQPPKLLIYDASTRESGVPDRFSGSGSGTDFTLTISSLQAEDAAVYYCQQYHRLPLSFGGGTKVEIK", "apparent Kd": "550 pM", "detected": "6/6", "control signals": "0/18"}

A sequence measured in both rounds can read differently, since the two assays cover different ranges.
As a blank, each scFv also met three strains without target: over all light chain designs, 4% of these pairings were detected, typically at 430 nM and seldom below 38 nM. Also given: how often the same scFv was detected with the empty control strains.
The parent sequence was in this pool as ten entries: three were never detected, three once, and four in most replicates, with averages from 2.2 nM to 240 nM.

From the AlphaSeq antibody data of Li et al. 2023 (doi:10.1038/s41467-023-39022-2), copy in the FLAb collection.